In the assay the target is T1, in vitro translated full-length human 14-3-3β (from 14-3-3β-pET28a) (human, UniProt P31946 1-246).
T1 construct: also called in vitro translated 14-3-3β
T1 sequence (looked up): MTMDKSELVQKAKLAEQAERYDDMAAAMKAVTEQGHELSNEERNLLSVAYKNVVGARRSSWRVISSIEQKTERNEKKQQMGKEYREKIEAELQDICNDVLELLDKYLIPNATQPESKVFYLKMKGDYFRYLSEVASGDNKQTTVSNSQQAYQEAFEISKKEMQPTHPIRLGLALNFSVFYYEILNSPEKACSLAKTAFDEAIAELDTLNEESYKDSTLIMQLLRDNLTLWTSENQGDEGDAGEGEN
Nature of the assay: GST pull-down on glutathione sepharose, immunoblot with anti-14-3-3β. Here is the method: 14-3-3β was in vitro translated from 14-3-3β-pET28a using Expressway™ in vitro protein synthesis system (Invitrogen) per manufacturer's instructions in a 50 μl reaction. GST-Ror2c in pGEX-4T-2 or pGEX-4T-2 (coding for GST alone) were transformed into BL21(DE3) strain of Escherichia coli. Cultures were grown to an A₆₀₀ of 0.7 and induced to express recombinant proteins by addition of isopropyl-1-thio-β-D-galactopyranoside (Sigma; final concentration of 1 mM) and incubation for 4 h. Bacterial pellets were harvested by centrifugation, washed in PBS, and resuspended in 30 ml of PBS supplemented with protease and phosphatase inhibitor cocktails (Sigma). Cells were lysed by passaging twice through a French Pressure Cell Press (Spectronic Instruments, Rochester, N.Y.) at 16,000 p.s.i., and bacterial debris was removed by centrifugation. The produced GST-Ror2c or GST proteins were incubated with glutathione sepharose for 4 h at 4° C. The beads were washed, resuspended in 1 ml PBS and the entire 50 μl of 14-3-3β in vitro translation reaction was added for 4 h at 4° C. At the end of this incubation, the beads were washed three times in PBS, boiled in 2xLDS-PAGE buffer with reducing agent (Invitrogen), and the solubilized proteins were separated by SDS-PAGE. The gels were transferred onto 0.45 μm nitrocellulose membrane before detection with each specific antibody.
In general terms: A western blot detects proteins with antibodies after separation by electrophoresis.

B1: GST alone (from pGEX-4T-2) (other, UniProt P08515 1-218, looked up)
chain: MSPILGYWKIKGLVQPTRLLLEYLEEKYEEHLYERDEGDKWRNKKFELGLEFPNLPYYIDGDVKLTQSMAIIRYIADKHNMLGGCPKERAEISMLEGAVLDIRYGVSRIAYSKDFETLKVDFLSKLPEMLKMFEDRLCHKTYLNGDHVTHPDFMLYDALDVVLYMDPMCLDAFPKLVCFKKRIEAIPQIDKYLKSSKYIAWPLQGWQATFGGGDHPPK
notes: Control of the pull-down
Consider B1, for which the binding result is on record as “no binding”.
